Assay results as given in patent US20250214977A1, “STAT6 INHIBITORS AND USES THEREOF” (Kymera Therapeutics, Inc., priority 2024, published 2025).

The chains behind the UniProt entries cited, without tags or fusion partners. Residues count along the entry.
UniProt P42226, 123-632 limits assumed: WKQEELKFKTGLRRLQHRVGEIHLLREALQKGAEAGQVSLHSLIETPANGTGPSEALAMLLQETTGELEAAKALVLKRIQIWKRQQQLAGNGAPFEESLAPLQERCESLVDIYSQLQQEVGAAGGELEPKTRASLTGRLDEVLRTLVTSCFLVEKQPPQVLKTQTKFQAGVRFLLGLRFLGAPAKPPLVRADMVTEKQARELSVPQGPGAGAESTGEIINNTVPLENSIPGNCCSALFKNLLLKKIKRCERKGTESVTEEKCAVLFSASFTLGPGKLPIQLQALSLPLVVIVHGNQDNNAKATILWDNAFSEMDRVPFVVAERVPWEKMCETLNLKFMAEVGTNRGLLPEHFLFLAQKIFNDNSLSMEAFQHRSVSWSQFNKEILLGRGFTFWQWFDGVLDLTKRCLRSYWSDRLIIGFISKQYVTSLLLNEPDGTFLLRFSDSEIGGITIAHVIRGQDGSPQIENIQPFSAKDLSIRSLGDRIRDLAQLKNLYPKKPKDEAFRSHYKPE

Tests used:
[1] = test system: Phosphorylation of STAT6 in human A549 cells; assay: Phosphorylated STAT6 (pSTAT6) flow cytometry assay in human A549 cells; conditions: read-out: STAT6 IL4 pSTAT6 assay in A549 cells: Average IC50
Description: Example 3. Phosphorylated STAT6 (pSTAT6) Flow Cytometry Assay in Human A549 Cells
Phosphorylation of STAT6 in human A549 cells was quantitatively measured using flow cytometry technology.

[2] = target: biotinylated truncated STAT6 (123-632)-avi (Homo sapiens, UniProt P42226); assay: Homogenous Time-Resolved Fluorescence (HTRF) binding assay; conditions: read-out: STAT6 HTRF: Average IC50; 0.15 nM biotinylated truncated STAT6 (123-632)-avi, 20 nM fluorescein-labeled probe, 30 minutes at room temperature
Experimental: Example 1. Homogenous Time-Resolved Fluorescence (HTRF) Binding Assay
HTRF binding assays were performed using 0.15 nM biotinylated truncated STAT6 (123-632)-avi purified from E. coli, 1× Streptavidin-terbium (CisBio) prepared by mixing SA-Tb in PPI detection buffer (CisBio), 20 nM proprietary fluorescein-labeled probe, and test compounds in assay buffer consisting of 50 mM HEPES-Na pH 7.5, 100 mM NaCl, 1 mM EDTA, 2 mM DTT, 0.1% Tween-20 with a final volume of 20 uL. Compound stocks were dissolved at 10 mM in 100% DMSO and 11 point titration with 3 fold serial dilution was performed in white, opaque 384 well microplates. Reaction plates were incubated at room temperature for 30 minutes. Plates were centrifuged at low rpm for 5 mins, and the ratio of fluorescence intensities were measured at emission wavelengths for fluorescein acceptor (520 nm) and terbium donor (495 nm) on Envision Plate reader. % Inhibition was calculated from the 520/495 ratio generated by using proprietary positive control compound for 100% inhibition and DMSO only reactions for 0% inhibition. Data was processed and dose response curves were generated using GraphPad Prism to determine the concentration required for inhibiting 50% of the HTRF signal (IC50).

Row | Structure (SMILES) | IC50 [1] [nM] | IC50 [2] [nM]
1 | CCc1nc(C)ccc1-c1cc(C(=O)N2CCN(c3ncc(F)cc3OC)CC2)cc2sc(C3=CCCN(C(=O)CCn4ccnn4)C3)nc12 | < 100 | < 100
2 | COc1ccncc1-c1cc([C@H]2CCCN(C(=O)CCn3cccn3)C2)c(F)c2[nH]c(C(=O)N3CCN(c4ncccc4OC)CC3)cc12 (single isomer, unassigned) | < 100 | < 100
3 | COc1cccnc1N1CCN(C(=O)c2cc3c(-c4cccc5c4OCCO5)cc(C4=CCCN(C(=O)CCn5ccnn5)C4)c(F)c3[nH]2)CC1 | > 100000 | < 100
4 | COc1cc(F)c(F)cc1-c1cc(C2=CCCN(C(=O)CCn3ccnn3)C2)c(F)c2[nH]c(C(=O)N3CCN(c4ncc(Cl)cc4OC)CC3)cc12 | 100 to 1000 | 100 to 1000
5 | CCn1ncc2c1CN(C(=O)c1cc3c(-c4nccn4C)cc(C4=CCCN(C(=O)CCn5ccnn5)C4)c(F)c3[nH]1)C2 | < 100 | < 100
6 | COc1ccccc1-c1cc(C2=CCCN(C(=O)CCn3ccnn3)C2)c(F)c2[nH]c(C(=O)N3CCN(c4cccc(OC)c4OC)CC3)cc12 | < 100 | < 100
7 | CCc1ccncc1-c1cc(C(=O)N2CCN(c3ncc(F)cc3OC)CC2)cc2cc(C3=CCCN(C(=O)CCn4ccnn4)C3)n(CC3CC3)c12 | > 100000 | > 100000
8 | COc1cc(F)cnc1N1CCN(C(=O)c2cc3c(C4=C[C@H](C)O[C@H](C)C4)cc(C4=CCCN(C(=O)CCn5ccnn5)C4)c(F)c3[nH]2)CC1 (relative stereo) | < 100 | < 100
9 | COc1cc(F)cnc1N1CCN(C(=O)c2cc3c(-c4ccccc4C#N)cc(C4=CCCN(C(=O)CCn5ccnn5)C4)c(F)c3[nH]2)CC1 | < 100 | < 100
10 | COc1ccncc1-c1cc(C2=CCCN(C(=O)CCc3nccs3)C2)c(F)c2[nH]c(C(=O)N3CCN(c4ncc(F)cc4OC)CC3)cc12 | 10000 to 100000 | 10000 to 100000
11 | COc1ccncc1-c1cc(C2=CCCN(C(=O)CCn3ccnn3)C2)c(F)c2[nH]c(C(=O)N3CCN(c4nc(C)c(OC)cc4OC)CC3)cc12 | < 100 | < 100
12 | COc1ccccc1-c1cc(C2=CCCN(C(=O)CCn3ccnn3)C2)c(F)c2[nH]c(C(=O)N3CCN(c4ccn5nncc5c4)CC3)cc12 | < 100 | < 100
13 | CCn1ncc2c1CN(C(=O)c1cc3c(-c4cccnn4)cc(C4=CCCN(C(=O)CCn5ccnn5)C4)c(F)c3[nH]1)C2 | < 100 | < 100
14 | CCn1ncc2c1CN(C(=O)c1cc3c([C@@H]4CCN(C)C4)cc(C4=CCCN(C(=O)CCn5ccnn5)C4)c(F)c3[nH]1)C2 (single isomer, unassigned) | > 100000 | > 100000
15 | Cc1ccccc1-c1cc(C2=CCCN(C(=O)CCn3ccnn3)C2)c(F)c2[nH]c(C(=O)N3CCN(c4ncccc4OC4CC4)CC3)cc12 | < 100 | < 100
16 | CCn1ncc2c1CN(C(=O)c1cc3c(-c4nccs4)cc(C4=CCCN(C(=O)CCn5ccnn5)C4)c(F)c3[nH]1)C2 | < 100 | < 100
17 | CCc1ccc(-c2cc(C(=O)N3Cc4cnn(CC)c4C3)cc3cc(C4=CCCN(C(C)=O)C4)n(CC)c23)c(C)n1 | 100 to 1000 | 100 to 1000
18 | COc1ccccc1-c1cc(C2=CCCN(C(=O)CCn3ccnn3)C2)c(F)c2[nH]c(C(=O)N3CCC[C@H](C(N)=O)C3)cc12 | < 100 | < 100
19 | CCc1cc(C)c(-c2cc(C3=CCCN(C(=O)CCn4ccnn4)C3)c(F)c3[nH]c(C(=O)N4Cc5cnn(CC)c5C4)cc23)cn1 | < 100 | < 100
20 | COc1ccccc1-c1cc(C2=CCCN(C(=O)CCn3ccnn3)C2)c(F)c2[nH]c(C(=O)N3CCO[C@@H](C)C3)cc12 | < 100 | < 100
21 | CC[C@H](O)CN1CCN(C(=O)c2cc3c(-c4ccccc4OC)cc(C4=CCCN(C(=O)CCn5ccnn5)C4)c(F)c3[nH]2)CC1 (single isomer, unassigned) | < 100 | < 100
22 | CC(=O)N1CCC=C(c2cc(-c3ccc4c(c3)CC(=O)N4)c3cc(C(=O)N(C)C)[nH]c3c2F)C1 | < 100 | < 100
23 | COc1ccccc1-c1cc(C2=CCCN(C(=O)CCn3ccnn3)C2)c(F)c2[nH]c(C(=O)N3C[C@H](C)O[C@@H](C)C3)cc12 | 100 to 1000 | 100 to 1000
24 | COc1ccccc1-c1cc(C2=CCCN(C(=O)CCn3ccnn3)C2)c(F)c2[nH]c(C(=O)N3CCC[C@H](c4ccccc4)C3)cc12 (single isomer, unassigned) | 100 to 1000 | 100 to 1000
25 | COc1cc(F)cnc1N1CCN(C(=O)c2cc3c(-c4ccccc4F)cc(C4=CCCN(C(=O)CCn5ccnn5)C4)c(F)c3[nH]2)CC1 | < 100 | < 100

Row | Structure (SMILES) | IC50 [1] [nM] | IC50 [2] [nM]
26 | CCc1ccncc1-c1cc([C@H]2CCCN(C(=O)CCn3ccnn3)C2)c(F)c2[nH]c(C(=O)N3Cc4cnn(C)c4C3)cc12 (single isomer, unassigned) | 10000 to 100000 | 10000 to 100000
27 | CCn1ncc2c1CN(C(=O)c1cc3c(-c4ccnn4C)cc(C4=CCCN(C(=O)CCn5ccnn5)C4)c(F)c3[nH]1)C2 | < 100 | < 100
28 | COc1cc(F)cnc1N1CCN(C(=O)c2cc3c(-c4cnccc4C#N)cc(C4=CCCN(C(=O)CCn5ccnn5)C4)c(F)c3[nH]2)CC1 | > 100000 | > 100000
29 | CCc1cc(C)c(-c2cc(C3=CCCN(C(=O)CCn4ccnn4)C3)c(F)c3[nH]c(C(=O)N4CCN(c5nc(C)c(F)cc5OC)CC4)cc23)cn1 | < 100 | < 100
30 | COc1ccncc1-c1cc(C2=CCCN(C(=O)CCn3ccnn3)C2)c(F)c2[nH]c(C(=O)N3CCN(c4cccc(OC)c4F)CC3)cc12 | < 100 | < 100
31 | CCc1ccc(-c2cc(C3=CCCN(C(=O)CCn4ccnn4)C3)c(F)c3[nH]c(C(=O)N4CCN(c5nc(C)c(F)cc5OC)CC4)cc23)c(C)n1 | > 100000 | > 100000
32 | COc1cc(F)cnc1N1CCN(C(=O)c2cc3c(-c4cccc5ccncc45)cc(C4=CCCN(C(=O)CCn5ccnn5)C4)c(F)c3[nH]2)CC1 | < 100 | < 100
33 | COc1cc(F)cnc1N1CCN(C(=O)c2cc3c(-c4cccc(C5(C#N)CC5)c4F)cc(C4=CCCN(C(=O)CCn5ccnn5)C4)c(F)c3[nH]2)CC1 | < 100 | < 100
34 | COc1cc(N(C)C)ccc1-c1cc(C2=CCCN(C(=O)CCn3ccnn3)C2)c(F)c2[nH]c(C(=O)N3CCN(C4CC4)CC3)cc12 | < 100 | < 100
35 | COc1cc(F)cnc1N1CCN(C(=O)c2cc3c(-c4cc(F)ccc4F)cc(C4=CCCN(C(=O)CCn5ccnn5)C4)c(F)c3[nH]2)CC1 | < 100 | < 100
36 | CCn1ncc2c1CN(C(=O)c1cc3c(-c4cc(F)ccc4F)cc(C4=CCCN(C(=O)CCn5ccnn5)C4)c(F)c3[nH]1)C2 | < 100 | < 100
37 | COC[C@@H]1CN(C(=O)c2cc3c(-c4ccccc4OC)cc(C4=CCCN(C(=O)CCn5ccnn5)C4)c(F)c3[nH]2)CCO1 | < 100 | < 100
38 | COc1cc(C)ncc1-c1cc(C2=CCCN(C(=O)CCn3ccnn3)C2)c(F)c2[nH]c(C(=O)N3CCN(C4CC4)CC3)cc12 | < 100 | < 100
39 | CCc1cc(C)ncc1-c1cc(C2=CCCN(C(=O)CCc3nccs3)C2)c(F)c2[nH]c(C(=O)N3CCN(c4ncc(C)nc4OC)CC3)cc12 | 100 to 1000 | 100 to 1000
40 | CCc1ccncc1-c1cc(C2=CCCN(C(=O)C(F)F)C2)c(F)c2[nH]c(C(=O)N3CCN(c4ncc(F)cc4OC)CC3)cc12 | 100 to 1000 | 100 to 1000
41 | CCn1ncc2c1CN(C(=O)c1cc3c(-c4cnccc4C#N)cc(C4=CCCN(C(=O)CCn5ccnn5)C4)c(F)c3[nH]1)C2 | < 100 | < 100
42 | CCn1ncc2c1CN(C(=O)c1cc3c(-c4ccccc4C#N)cc(C4=CCCN(C(=O)CCn5ccnn5)C4)c(F)c3[nH]1)C2 | < 100 | < 100
43 | CC(=O)N1CCC=C(c2cc(-c3ccc(F)cc3C)c3cc(C(=O)N(C)C)[nH]c3c2F)C1 | 100 to 1000 | 100 to 1000
44 | COc1ccccc1-c1cc(C2=CCCN(C(=O)CCn3ccnn3)C2)c(F)c2[nH]c(C(=O)N3CCC(N4CCCCC4)C3)cc12 (centres unmarked) | 100 to 1000 | 100 to 1000
45 | COc1ccccc1-c1cc(C2=CCCN(C(=O)CCn3ccnn3)C2)c(F)c2[nH]c(C(=O)N3CCc4c(o[nH]c4=O)C3)cc12 | < 100 | < 100
46 | CCc1ncccc1-c1cc(C(=O)N2CCN(c3ncc(F)cc3OC)CC2)cc2cc(C3=CCCN(C(=O)CCn4ccnn4)C3)n(CC3CC3)c12 | < 100 | < 100
47 | COc1ccc(CN2CCN(C(=O)c3cc4c(-c5ccccc5OC)cc(C5=CCCN(C(=O)CCn6ccnn6)C5)c(F)c4[nH]3)CC2)c(F)c1 | 100 to 1000 | 100 to 1000
48 | COc1ccccc1-c1cc(C2=CCCN(C(=O)CCn3ccnn3)C2)c(F)c2[nH]c(C(=O)N3CCN(c4nc(C)ccc4OC)CC3)cc12 | < 100 | < 100
49 | CCc1cc(C)c(-c2cc(C3=CCCN(C(=O)CCn4ccnn4)C3)c(F)c3[nH]c(C(=O)N4CCN(C5CC5)CC4)cc23)cn1 | < 100 | < 100
